Measurements taken from ChEMBL document CHEMBL1125895, “Naphtho and benzo analogues of the kappa opioid agonist trans-(+/-)-3,4-dichloro-N-methyl-N-[2-(1-pyrrolidinyl)cyclohexyl] benzeneacetamide” (1991).

The chains behind the UniProt entries cited, without tags or fusion partners. Where a name states a change or a piece, a line headed by the entry shows the natural chain unless it says otherwise.
UniProt P33534: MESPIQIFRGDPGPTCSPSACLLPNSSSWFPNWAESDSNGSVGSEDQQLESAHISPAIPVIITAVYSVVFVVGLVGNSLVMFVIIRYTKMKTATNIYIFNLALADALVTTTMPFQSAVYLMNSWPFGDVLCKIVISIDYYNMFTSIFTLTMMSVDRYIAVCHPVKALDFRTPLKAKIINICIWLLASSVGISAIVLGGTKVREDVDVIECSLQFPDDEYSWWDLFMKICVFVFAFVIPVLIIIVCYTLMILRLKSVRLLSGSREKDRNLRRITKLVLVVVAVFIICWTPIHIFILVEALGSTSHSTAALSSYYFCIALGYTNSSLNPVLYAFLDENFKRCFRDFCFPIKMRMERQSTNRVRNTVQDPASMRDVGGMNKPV
UniProt P42866, whole entry, looked up: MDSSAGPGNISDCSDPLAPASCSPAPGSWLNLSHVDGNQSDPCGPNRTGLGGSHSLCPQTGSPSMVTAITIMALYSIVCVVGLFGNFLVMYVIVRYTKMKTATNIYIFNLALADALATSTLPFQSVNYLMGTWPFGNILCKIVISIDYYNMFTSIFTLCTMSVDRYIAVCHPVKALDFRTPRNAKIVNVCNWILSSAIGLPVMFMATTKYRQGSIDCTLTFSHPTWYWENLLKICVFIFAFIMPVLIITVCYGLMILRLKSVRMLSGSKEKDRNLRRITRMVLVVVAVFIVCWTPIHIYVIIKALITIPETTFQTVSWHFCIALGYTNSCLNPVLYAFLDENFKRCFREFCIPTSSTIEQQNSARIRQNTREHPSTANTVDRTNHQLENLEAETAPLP

Each compound was assayed on Mus musculus (assay: In vivo analgesic activity for chemical irritation modality using HCl writhing test in female CF-1 mice administered subcutaneously).

Q: `CN(C(=O)Cc1ccc(Cl)c(Cl)c1)C1CCCCC1N1CCCC1` (centres undefined) was tested. Which ED50 did it give?
A: 2.5 mg/kg

Q: Which ED50 does the source give for `CN(C)[C@@H]1CCc2ccccc2[C@H]1N(C)C(=O)Cc1ccc(Cl)c(Cl)c1` here?
A: 25 mg/kg

Q: How did the ED50 turn out when `CN(C(=O)Cc1ccc(Cl)c(Cl)c1)[C@@H]1c2ccccc2CC[C@H]1N1CCCC1` was run?
A: 0.8 mg/kg

Q: `CN(C(=O)c1ccc(Cl)c(Cl)c1)[C@@H]1Cc2ccccc2C[C@H]1N1CCCC1` was tested. Which ED50 did it give?
A: > 100 mg/kg

Q: How did the ED50 turn out when `CN(C(=O)Cc1ccc(Cl)c(Cl)c1)[C@@H]1Cc2ccccc2C[C@H]1N1CCCC1.Cl` was run?
A: 1.1 mg/kg

Q: With `CN(C(=O)Cc1ccc(Cl)c(Cl)c1)[C@@H]1Cc2cc3ccccc3cc2C[C@H]1N1CCCC1` as the compound, how does the ED50 read?
A: > 100 mg/kg

Each compound was assayed on Mus musculus (assay: In vivo analgesic activity for heat stimulus modality using tail flick test in female CF-1 mice administered subcutaneously).

Q: Which ED50 does the source give for `CN(C(=O)Cc1ccc(Cl)c(Cl)c1)C1CCCCC1N1CCCC1` (centres undefined) here?
A: 2.5 mg/kg

Q: Which ED50 does the source give for `CN(C)[C@@H]1CCc2ccccc2[C@H]1N(C)C(=O)Cc1ccc(Cl)c(Cl)c1` here?
A: 28 mg/kg

Q: With `CN(C(=O)Cc1ccc(Cl)c(Cl)c1)[C@@H]1c2ccccc2CC[C@H]1N1CCCC1` as the compound, how does the ED50 read?
A: 2 mg/kg

Q: How did the ED50 turn out when `CN(C(=O)c1ccc(Cl)c(Cl)c1)[C@@H]1Cc2ccccc2C[C@H]1N1CCCC1` was run?
A: > 100 mg/kg

Q: How did the ED50 turn out when `CN(C(=O)Cc1ccc(Cl)c(Cl)c1)[C@@H]1Cc2ccccc2C[C@H]1N1CCCC1.Cl` was run?
A: 2 mg/kg

Q: Which ED50 does the source give for `CN(C(=O)Cc1ccc(Cl)c(Cl)c1)[C@@H]1Cc2cc3ccccc3cc2C[C@H]1N1CCCC1` here?
A: > 100 mg/kg

What follows are compounds tested on Mus musculus (assay: In vivo analgesic activity for pressure stimulus modality using tail pinch test in female CF-1 mice administered subcutaneously).

Q: Which ED50 does the source give for `CN(C(=O)Cc1ccc(Cl)c(Cl)c1)C1CCCCC1N1CCCC1` (centres undefined) here?
A: 2.5 mg/kg

Q: With `CN(C)[C@@H]1CCc2ccccc2[C@H]1N(C)C(=O)Cc1ccc(Cl)c(Cl)c1` as the compound, how does the ED50 read?
A: 28 mg/kg

Q: For `CN(C(=O)Cc1ccc(Cl)c(Cl)c1)[C@@H]1c2ccccc2CC[C@H]1N1CCCC1`, which ED50 is on record?
A: 0.5 mg/kg

Q: `CN(C(=O)c1ccc(Cl)c(Cl)c1)[C@@H]1Cc2ccccc2C[C@H]1N1CCCC1` was tested. Which ED50 did it give?
A: > 100 mg/kg

Q: Which ED50 does the source give for `CN(C(=O)Cc1ccc(Cl)c(Cl)c1)[C@@H]1Cc2ccccc2C[C@H]1N1CCCC1.Cl` here?
A: 2 mg/kg

Q: `CN(C(=O)Cc1ccc(Cl)c(Cl)c1)[C@@H]1Cc2cc3ccccc3cc2C[C@H]1N1CCCC1` was tested. Which ED50 did it give?
A: > 100 mg/kg

The compounds below were run against Kappa-type opioid receptor (Mus musculus, UniProt P33534) (assay: Binding affinity against opioid receptor kappa using [3H]U-69,593 as a radioligand).

Q: Which IC50 does the source give for `CN(C)[C@@H]1CCc2ccccc2[C@H]1N(C)C(=O)Cc1ccc(Cl)c(Cl)c1` here?
A: 11.7 nM

Q: How did the IC50 turn out when `CN(C(=O)Cc1ccc(Cl)c(Cl)c1)[C@@H]1c2ccccc2CC[C@H]1N1CCCC1` was run?
A: 7.3 nM

Q: For `CN(C(=O)c1ccc(Cl)c(Cl)c1)[C@@H]1Cc2ccccc2C[C@H]1N1CCCC1`, which IC50 is on record?
A: 29 nM

Q: Which IC50 does the source give for `CN(C(=O)Cc1ccc(Cl)c(Cl)c1)[C@@H]1Cc2cc3ccccc3cc2C[C@H]1N1CCCC1` here?
A: 145 nM

Q: With `CN(C(=O)Cc1ccc(Cl)c(Cl)c1)[C@@H]1Cc2ccccc2C[C@H]1N1CCCC1` as the compound, how does the IC50 read?
A: 5.2 nM

These compounds were tested against T1, Mu-type opioid receptor (Mus musculus, UniProt P42866) (assay: Binding affinity against Opioid receptor mu 1 using [3H]etorphine as a radioligand).

Q: With `CN(C(=O)Cc1ccc(Cl)c(Cl)c1)C1CCCCC1N1CCCC1` (centres undefined) as the compound, how does the Ki read?
A: > 1000 nM

These compounds were tested against T1, Mu-type opioid receptor (assay: Binding affinity against opioid receptor mu using [3H]etorphine as a radioligand).

Q: How did the Ki turn out when `CN(C)[C@@H]1CCc2ccccc2[C@H]1N(C)C(=O)Cc1ccc(Cl)c(Cl)c1` was run?
A: > 1000 nM

Q: `CN(C(=O)Cc1ccc(Cl)c(Cl)c1)[C@@H]1c2ccccc2CC[C@H]1N1CCCC1` was tested. Which Ki did it give?
A: > 1000 nM

Q: How did the Ki turn out when `CN(C(=O)c1ccc(Cl)c(Cl)c1)[C@@H]1Cc2ccccc2C[C@H]1N1CCCC1` was run?
A: 374 nM

Q: Which Ki does the source give for `CN(C(=O)Cc1ccc(Cl)c(Cl)c1)[C@@H]1Cc2cc3ccccc3cc2C[C@H]1N1CCCC1` here?
A: > 1000 nM

Q: With `CN(C(=O)Cc1ccc(Cl)c(Cl)c1)[C@@H]1Cc2ccccc2C[C@H]1N1CCCC1` as the compound, how does the Ki read?
A: > 1000 nM
